Data: ChEMBL document CHEMBL4145507, “Design, synthesis and biological evaluation of novel indole-benzimidazole hybrids targeting estrogen receptor alpha (ER-α)” (Eur J Med Chem, 2018)

system: T47D; assay: Antiproliferative activity against human T47D cells after 48 hrs by MTT assay; assay type: functional, cell-based

SMILES	Activity
c1ccc2[nH]c(-c3nc4ccccc4[nH]3)cc2c1	Dose-dependent effect
c1ccc(Cn2c(-c3nc4ccccc4[nH]3)cc3ccccc32)cc1	Dose-dependent effect
c1ccc(Cn2c(-c3nc4cc5ccccc5cc4[nH]3)cc3ccccc32)cc1	Dose-dependent effect
Clc1cc2nc(-c3cc4ccccc4n3Cc3ccccc3)[nH]c2cc1Cl	Dose-dependent effect
Cc1cc(C)c2nc(-c3cc4ccccc4[nH]3)[nH]c2c1	Dose-dependent effect
BrC1=CN2NC(c3cc4ccccc4[nH]3)=NC2N=C1 (centres undefined)	Dose-dependent effect
c1ccc2[nH]c(C3=Nc4cccc5cccc(c45)N3)cc2c1	Dose-dependent effect
Clc1cc2nc(-c3cc4ccccc4[nH]3)[nH]c2cc1Cl	Dose-dependent effect
Brc1ccc2[nH]c(-c3cc4ccccc4n3Cc3ccccc3)nc2c1	Dose-dependent effect
Brc1cnc2[nH]c(-c3cc4ccccc4[nH]3)nc2c1	Dose-dependent effect
c1ccc2cc3[nH]c(-c4cc5ccccc5[nH]4)nc3cc2c1	Dose-dependent effect
Brc1ccc2[nH]c(-c3cc4ccccc4[nH]3)nc2c1	Dose-dependent effect
Cc1cc(C)c2nc(-c3cc4ccccc4n3Cc3ccccc3)[nH]c2c1	Dose-dependent effect
Cc1cccc2[nH]c(-c3cc4ccccc4[nH]3)nc12	Dose-dependent effect
